pEC50: −log10 of the molar value.

The chains behind the UniProt entries cited, without tags or fusion partners. Where a name states a change or a piece, a line headed by the entry shows the natural chain unless it says otherwise.
UniProt Q9GZQ6: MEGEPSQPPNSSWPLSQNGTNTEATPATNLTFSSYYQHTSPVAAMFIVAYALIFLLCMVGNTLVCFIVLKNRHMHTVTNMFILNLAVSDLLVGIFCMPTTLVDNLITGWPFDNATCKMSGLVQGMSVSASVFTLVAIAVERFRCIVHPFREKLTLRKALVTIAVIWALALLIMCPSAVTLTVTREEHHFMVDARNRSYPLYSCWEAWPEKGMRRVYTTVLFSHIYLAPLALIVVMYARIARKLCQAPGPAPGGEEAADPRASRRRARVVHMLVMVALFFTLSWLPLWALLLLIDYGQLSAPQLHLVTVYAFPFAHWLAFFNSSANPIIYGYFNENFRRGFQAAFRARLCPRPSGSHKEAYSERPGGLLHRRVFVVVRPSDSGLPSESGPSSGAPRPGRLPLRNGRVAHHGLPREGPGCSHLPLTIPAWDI

This assay addresses T1, NPFF1R (WT) (Homo sapiens, UniProt Q9GZQ6).
T1 construct: expressed in transfected cells; host or cells: HEK293 cells stably expressing Gα16
The experiment in a line: NPVF-induced calcium mobilization, wild-type receptor. It is filed as cell-based. To be noted: HEK293 stably expressing Gα16, Fluo-4, mean ± S.E.M., n ≥ 3. (In general: A change in cytosolic calcium serves as a functional read-out for many receptors and channels.)

The pEC50 is −log10 of the EC50, conventionally taken in molar units. As to `CC(C)C[C@H](NC(=O)[C@H](CC(N)=O)NC(=O)[C@@H]1CCCN1C(=O)[C@@H](N)C(C)C)C(=O)N1CCC[C@H]1C(=O)N[C@@H](CCC(N)=O)C(=O)N[C@@H](CCCNC(=N)N)C(=O)N[C@@H](Cc1ccccc1)C(N)=O` [NPVF], the pEC50 is 7.45.

Values taken from paper PMC11148045, “Structural basis for recognition of 26RFa by the pyroglutamylated RFamide peptide receptor” (Cell Discovery, 2024).
